Tests used:
Aβ1-42 = Aβ1-42 (Homo sapiens, UniProt P05067); test: Thioflavine T fluorometric assay of amyloid formation by Aβ1-42; format: biochemical; conditions: amyloid remaining; 30 μg Aβ with 10-fold molar excess of peptide, 2 days, room temperature, 0.1M tris pH 7.6; Aβ alone = 100
Aβ1-40 = test: Thioflavine T fluorometric assay of amyloid formation by Aβ1-40; format: biochemical; conditions: amyloid remaining; 30 μg Aβ with 10-fold molar excess of peptide, 2 days, room temperature, 0.1M tris pH 7.6; Aβ alone = 100

Chains of the proteins cited; added tags and fusions are not shown. Residues count along the entry.
UniProt P05067, 18-42: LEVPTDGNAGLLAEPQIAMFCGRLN

## Aβ10-20: short Aβ fragment (YEVHHQKLVFF) [reference compound]
Aβ1-42
  % of amyloid Aβ1-42: 80.9 ± 1.6%
Aβ1-40
  % of amyloid Aβ1-40: 73.1 ± 0.9%
